According to patent US20040259952A1, “Formulations for oral administration of cromolyn sodium” (priority 2001, published 2004):

Assays:
[1] = Single escalating dose study of Cromolyn/SNAC capsules: plasma pharmacokinetics of cromolyn and SNAC; details: with SNAC
Method: This study was a randomized, open label, oral, single escalating dose administration study in healthy, fasted volunteers.
The study was carried out in two parts. […] Safety and pharmacokinetic measures were collected and evaluated following each dose.
On day one of each study treatment period, medication (capsules) was administered following an 8-hour overnight fast. The capsules were swallowed with up to 120 mL of water to the subjects in an upright position.
The process could be summarized as follows: First, sieve SNAC powder through a screen, or delump it using a pestle/mortar.

[2] = Multiple dose study (twice daily for ten days): plasma pharmacokinetics of cromolyn and SNAC; details: twice daily dosing
Method: Two groups of human males were defined: group 1 consisted of 12 healthy male volunteers, and group 2 had 12 allergic male volunteers. […] The dosing regimen is illustrated in Table 7 below.
Each subject received oral dosing of the study medication twice a day for nine days. On the last day (i.e., day 10), only the morning dose was administered. The capsules were administered with up to 200 mL of water to the subjects in an upright position. The first dose of each day was administered following an overnight fast, and the second dose of each day was administered at least 1 hour before a meal or 4 hours after a meal. No food was allowed for at least 4 hours before the oral dosing.
Pharmacodynamics were measured for Group 1 and 2 by measuring the length and width of the wheal and flare reaction, and permanent records were generated by marking on transparent tapes and/or by photographs. For Group 2 only, pharmacodynamics were also measured by VAS scores and PNIF measurements before and after nasal provocation test.

5,5′-[(2-hydroxy-1,3-propanediyl)bis-(oxy)]4-oxo-4H-1-benzopyran-2-carboxylic acid [cromolyn]
time within which cleared from the body [1]: 6 to 8 h | accumulation during multiple dose treatment [2]: no accumulation
